Measured values taken from PMC12113668, “Discovery of Potential Scaffolds for Methionine Adenosyltransferase 2A (MAT2A) Inhibitors: Virtual Screening, Synthesis, and Biological Evaluation” (Molecules, 2025).

Sequences of proteins named here, by UniProt entry; tags and fusion partners are left off.
UniProt P31153, whole entry: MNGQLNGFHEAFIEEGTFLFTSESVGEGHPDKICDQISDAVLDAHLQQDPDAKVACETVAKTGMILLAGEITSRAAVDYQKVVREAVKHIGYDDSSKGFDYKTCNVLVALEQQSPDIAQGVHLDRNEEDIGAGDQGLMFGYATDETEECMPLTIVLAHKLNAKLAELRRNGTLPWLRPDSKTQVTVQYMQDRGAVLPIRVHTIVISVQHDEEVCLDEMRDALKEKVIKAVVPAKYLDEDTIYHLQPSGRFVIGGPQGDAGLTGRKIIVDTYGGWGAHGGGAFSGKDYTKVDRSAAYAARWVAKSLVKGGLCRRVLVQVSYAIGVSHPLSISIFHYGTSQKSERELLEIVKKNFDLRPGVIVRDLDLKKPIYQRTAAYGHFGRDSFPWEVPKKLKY

Target: MAT2A (Homo sapiens, UniProt P31153)
Assay: MAT2A enzymatic assay (colorimetric Phosphate Assay Kit-PiColorLock)
Assay type: biochemical
Description: The inhibition of MAT2A by each compound was determined using the colorimetric Phosphate Assay Kit-PiColorLock (#ab270004) as described previously. […] Assay measurements were performed in 1X buffer containing 50 mM Tris, 50 mM KCl, 10 mM MgCl2, and 0.05% Brij-35 (pH 8.0) in a final assay volume of 5 μL. A total of 2.5 μL of MAT2A protein with a final concentration of 20 μg/mL was added to each well of a 384 well assay plate containing 100 nL of each concentration of test compound dissolved in DMSO and incubated for 30 min at room temperature. ATP (100 μM final concentration) and L-Met (100 μM final concentration) were subsequently added and incubated for 30 min at room temperature. Then 20 μL of the phosphate assay kit substrate was added to each well, incubated at room temperature for 30 min, and then the absorbance was measured at 620 nm on a plate reader.

Maximum Inhibition (%): 96%
SMILES: CN(C)c1nc(=O)n(-c2ccccc2)c2cc(Cl)ccc12 [6 (AZ-28), AZ-28, reference compound]
